The target of this experiment is T1, neuronal nicotinic acetylcholine receptors (Rattus norvegicus, UniProt P09483+P12390).
T1 construct: crude synaptic membrane preparations from whole rat brain; from tissue; host or cells: whole rat brain, crude synaptic membranes
The experiment in a line: [3H]-cytisine binding to neuronal nicotinic acetylcholine receptors, crude synaptic membranes from whole rat brain. As for the experimental part: The In Vitro protocols for determination of nicotinic acetylcholine channel receptor binding potencies of ligands were determined as follows.
Washed membranes were stored at-80 °C prior to use. Frozen aliquots were slowly thawed and resuspended in 20 volumes of buffer (containing: 120 mM NaCl, 5 mM KCI, 2 mM MgCl2, 2 mM CaCl2 and 50 mM Tris-Cl, pH 7.4 @4 °C). After centrifuging at 20,000x g for 15 minutes, the pellets were resuspended in 30 volumes of buffer.
The test compounds were dissolved in water to make 10 mM stock solutions. Each solution was then diluted (1:100) with buffer (as above) and further taken through seven serial log dilutions to produce test solutions from 10^-5 to 10^-11 M.
Samples were incubated for 60 minutes at 4 °C, then rapidly filtered through Whatman GF/B filters presoaked in 0.5% polyethyleneimine using 3 x 4 mL of ice-cold buffer. The filters are counted in 4 mL of Ecolume® (ICN). Nonspecific binding was determined in the presence of 10 µM (-)-nicotine and values were expressed as a percentage of total binding. IC50 values were determined with the RS-1 (BBN) nonlinear least squares curve-fitting program and IC50 values were converted to Ki values using the Cheng and Prusoff correction (Ki=IC50/(1+[ligand]/Kd of ligand).

Chains of the proteins cited; added tags and fusions are not shown. Residues count along the entry.
UniProt P09483, 31-630: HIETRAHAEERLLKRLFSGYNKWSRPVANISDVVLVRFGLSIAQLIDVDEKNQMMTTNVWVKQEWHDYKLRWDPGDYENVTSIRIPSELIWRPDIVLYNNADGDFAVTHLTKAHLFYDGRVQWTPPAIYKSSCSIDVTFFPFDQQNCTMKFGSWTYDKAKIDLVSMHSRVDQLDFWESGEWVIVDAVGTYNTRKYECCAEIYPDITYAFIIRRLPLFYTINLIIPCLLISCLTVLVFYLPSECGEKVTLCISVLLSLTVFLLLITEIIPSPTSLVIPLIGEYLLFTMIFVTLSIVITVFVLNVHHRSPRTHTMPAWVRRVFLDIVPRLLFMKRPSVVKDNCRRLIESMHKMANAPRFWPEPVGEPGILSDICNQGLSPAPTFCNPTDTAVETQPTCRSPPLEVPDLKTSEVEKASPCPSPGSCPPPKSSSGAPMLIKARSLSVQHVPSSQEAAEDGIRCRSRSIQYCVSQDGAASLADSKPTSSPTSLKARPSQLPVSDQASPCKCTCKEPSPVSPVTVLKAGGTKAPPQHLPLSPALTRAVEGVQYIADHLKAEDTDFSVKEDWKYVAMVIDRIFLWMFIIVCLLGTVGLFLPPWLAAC
UniProt P12390, 25-500: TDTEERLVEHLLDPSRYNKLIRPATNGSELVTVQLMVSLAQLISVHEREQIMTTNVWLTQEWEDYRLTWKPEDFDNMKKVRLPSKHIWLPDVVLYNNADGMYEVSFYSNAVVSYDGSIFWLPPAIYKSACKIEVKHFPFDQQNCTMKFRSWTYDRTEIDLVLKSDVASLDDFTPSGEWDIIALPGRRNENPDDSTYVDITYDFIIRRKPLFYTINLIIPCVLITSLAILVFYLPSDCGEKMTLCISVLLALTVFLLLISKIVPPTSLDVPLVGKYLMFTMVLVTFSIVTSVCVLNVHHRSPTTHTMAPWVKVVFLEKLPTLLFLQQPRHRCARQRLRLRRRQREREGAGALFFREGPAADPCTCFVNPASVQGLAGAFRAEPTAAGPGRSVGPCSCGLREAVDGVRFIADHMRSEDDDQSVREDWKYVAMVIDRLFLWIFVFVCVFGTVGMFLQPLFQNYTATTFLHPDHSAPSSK

The structures appear in SMILES notation. Structures can show the parent of a compound that is named as a salt.

As usually defined, the Ki is the dissociation constant of the complex between target and ligand, obtained from inhibition or displacement. Lower therefore signals higher affinity. Molecule `Clc1ccc(N2CC3CCC(C2)N3)nc1` [Example 19, 3-(5-chloro-2-pyridinyl)-3,8-diazabicyclo[3.2.1]octane dihydrochloride, reference compound] displayed an inhibition constant (Ki) above 10 µM.

(Values after EP1359152B1, “Diazabicyclic derivatives as nicotinic acetylcholine receptor ligands” (ABBOTT LABORATORIES, priority 1999, dated 2000).)
